## Yeast mating assay 2: variants of the scFv Ab-91

Values reported by Engelhart et al. 2022, doi:10.1038/s41597-022-01779-4 (FLAb copy).

All variants were tested on one target, the spike HR2 peptide PDVDLGDISGINAS (SARS-CoV-2).

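Variants in AAYL51 differ from the parent at up to three CDR positions; double and triple changes were sampled at random. The scFvs were displayed on barcoded MATa yeast, the peptide on MATalpha yeast. The frequency of each diploid, read from paired DNA barcodes, reflects how well the two displayed proteins bind. The ratio of observed to expected reads was calibrated, replicate by replicate, on BCL2-family standards whose Kd was known from biolayer interferometry. The assay was run in three technical replicates.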

The variants keep the light chain, the linker and the frameworks of Ab-91 (scFv order VL, a 15-residue (Gly4Ser)3 linker, VH).
VL: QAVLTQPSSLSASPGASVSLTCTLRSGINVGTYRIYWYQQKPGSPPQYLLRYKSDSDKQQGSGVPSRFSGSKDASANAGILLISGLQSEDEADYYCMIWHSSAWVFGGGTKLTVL
VH: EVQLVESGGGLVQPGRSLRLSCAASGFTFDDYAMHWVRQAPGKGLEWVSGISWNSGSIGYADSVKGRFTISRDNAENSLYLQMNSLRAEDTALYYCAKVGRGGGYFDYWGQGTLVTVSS

Sequences are complete VH domains. All variants listed here change G102 of the VH, counted from its first residue. The Kd shown is the geometric mean over detected replicates; a lower Kd is a better binder. A pair that was not seen in any replicate is written "no signal"; this usually means weak binding, but a binder can also be missed.

For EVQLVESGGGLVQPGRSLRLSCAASGFTFDDYAMHWVRQAPGKGLEWVSGISWNSGSIAYADSVKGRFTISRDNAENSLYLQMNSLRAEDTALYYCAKVGQCGGYFDYWGQGTLVTVSS, the assay gave 6.5 µM (2 of 3 replicates).
For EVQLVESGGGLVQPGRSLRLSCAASGFTFDDYAMHWVRQAPGKGLEWVSGIEWNSGSIMYADSVKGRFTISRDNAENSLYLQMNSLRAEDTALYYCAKVGRQGGYFDYWGQGTLVTVSS, the assay gave 200 µM (3 of 3 replicates).
For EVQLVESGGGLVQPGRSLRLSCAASGFTFDDYAMHWVRQAPGKGLEWVSGTSWNSGSIGYADSDKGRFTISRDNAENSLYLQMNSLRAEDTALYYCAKVGRSGGYFDYWGQGTLVTVSS, the assay gave no signal (0 of 3 replicates).
For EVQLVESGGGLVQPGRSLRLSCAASGFTFDDYAMHWVRQAPGKGLEWVSGISWNSGSIGYKDSVKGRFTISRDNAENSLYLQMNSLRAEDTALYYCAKVGRALGYFDYWGQGTLVTVSS, the assay gave 110 µM (1 of 3 replicates).
For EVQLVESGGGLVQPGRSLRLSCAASGFTFDDYAMHWVRQAPGKGLEWVSGISWNSGSIGYAVSVKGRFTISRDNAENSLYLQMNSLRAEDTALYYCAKVGCWGGYFDYWGQGTLVTVSS, the assay gave 49 nM (3 of 3 replicates).
For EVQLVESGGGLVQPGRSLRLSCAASGFTFDDYAMHWVRQAPGKGLEWVSGISWNSGSIAYADSVKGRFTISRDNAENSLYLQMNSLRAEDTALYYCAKDGREGGYFDYWGQGTLVTVSS, the assay gave no signal (0 of 3 replicates).
For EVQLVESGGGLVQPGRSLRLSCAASGFTFDDDAMHWVRQAPGKGLEWVSGWSWNSGSIGYADSVKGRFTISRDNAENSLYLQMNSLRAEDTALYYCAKVGRPGGYFDYWGQGTLVTVSS, the assay gave 7.6 µM (1 of 3 replicates).
For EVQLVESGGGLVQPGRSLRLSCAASGFTFDDYAMNWVRQAPGKGLEWVSGISWNSGSIGYADSVKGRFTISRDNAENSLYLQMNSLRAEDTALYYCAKVGRHGGYFDLWGQGTLVTVSS, the assay gave 5.0 µM (2 of 3 replicates).
For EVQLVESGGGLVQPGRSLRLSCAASGFTFDDYKMHWVRQAPGKGLEWVSGISWNSGSIGYADSRKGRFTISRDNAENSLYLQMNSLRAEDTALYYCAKVGRPGGYFDYWGQGTLVTVSS, the assay gave 65 µM (1 of 3 replicates).
For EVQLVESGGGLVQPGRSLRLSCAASGFTFDDYAMHWVRQAPGKGLEWVSGISWNSGSIGFADSVGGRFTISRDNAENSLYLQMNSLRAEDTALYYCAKVGRMGGYFDYWGQGTLVTVSS, the assay gave 130 µM (2 of 3 replicates).
For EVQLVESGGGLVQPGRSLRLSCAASGFTFELYAMHWVRQAPGKGLEWVSGISWNSGSIGYADSVKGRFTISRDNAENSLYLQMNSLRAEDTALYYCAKVGRWGGYFDYWGQGTLVTVSS, the assay gave 5.9 nM (3 of 3 replicates).
For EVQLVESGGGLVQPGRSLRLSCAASGFTFDDYAMHWVRQAPGKGLEWVSGISWNSGSIGYADSVKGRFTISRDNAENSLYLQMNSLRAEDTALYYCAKMGRIGGYFDYWGQGTLVTVSS, the assay gave 5.5 nM (3 of 3 replicates).
For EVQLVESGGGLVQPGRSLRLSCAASGFTFDDYAMHWVRQAPGKGLEWVSGISWNSGSIGYADQVKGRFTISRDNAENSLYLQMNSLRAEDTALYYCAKVGRVGGYQDYWGQGTLVTVSS, the assay gave no signal (0 of 3 replicates).
For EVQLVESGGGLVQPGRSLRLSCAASGFTFDDYAMHWVRQAPGKGLEWVSGITWNSGSIGYADSVKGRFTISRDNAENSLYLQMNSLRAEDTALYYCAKVMRYGGYFDYWGQGTLVTVSS, the assay gave 4.4 µM (3 of 3 replicates).
For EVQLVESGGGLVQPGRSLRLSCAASGFTFDDQAMHWVRQAPGKGLEWVSGISWNSGSIGYADSVKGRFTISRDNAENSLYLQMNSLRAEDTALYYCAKVGRSGPYFDYWGQGTLVTVSS, the assay gave no signal (0 of 3 replicates).

2 of these entries, quoted again:

VH	Kd	seen in
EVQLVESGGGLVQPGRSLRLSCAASGFTFDDYAMHWVRQAPGKGLEWVSGIEWNSGSIMYADSVKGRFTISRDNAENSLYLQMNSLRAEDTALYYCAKVGRQGGYFDYWGQGTLVTVSS	200 µM	3/3
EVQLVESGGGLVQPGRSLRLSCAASGFTFDDYAMHWVRQAPGKGLEWVSGISWNSGSIGYADSVKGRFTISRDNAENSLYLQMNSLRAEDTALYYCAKMGRIGGYFDYWGQGTLVTVSS	5.5 nM	3/3

Empty control strains, which show no peptide, gave a signal in 21% of pairings with library AAYL51; the median was 34 µM and 95% of these signals were weaker than 1.8 µM. No background was subtracted.